Measurements published in US6710041B2, “Pyrrolo[2,1-B][3,1] benzothiazepines and their use for the preparation of medicaments with antipsychotic activity” (Sigma-Tau Industrie Farmaceutiche Riunite S.p.A., priority 2003, dated 2004).

The chains behind the UniProt entries cited, without tags or fusion partners.
UniProt P14842, whole entry: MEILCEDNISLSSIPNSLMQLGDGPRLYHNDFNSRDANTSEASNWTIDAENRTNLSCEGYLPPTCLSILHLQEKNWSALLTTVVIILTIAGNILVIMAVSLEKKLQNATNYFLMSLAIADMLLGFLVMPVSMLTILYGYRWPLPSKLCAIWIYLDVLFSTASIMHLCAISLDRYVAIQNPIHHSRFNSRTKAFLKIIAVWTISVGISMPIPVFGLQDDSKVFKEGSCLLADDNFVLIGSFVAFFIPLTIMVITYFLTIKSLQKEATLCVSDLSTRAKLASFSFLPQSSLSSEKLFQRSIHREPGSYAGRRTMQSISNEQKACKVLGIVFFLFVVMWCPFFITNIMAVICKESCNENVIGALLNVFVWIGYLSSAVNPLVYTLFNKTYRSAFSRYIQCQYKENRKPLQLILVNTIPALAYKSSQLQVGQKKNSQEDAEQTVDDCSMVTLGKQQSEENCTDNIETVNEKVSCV
UniProt P18901, whole entry: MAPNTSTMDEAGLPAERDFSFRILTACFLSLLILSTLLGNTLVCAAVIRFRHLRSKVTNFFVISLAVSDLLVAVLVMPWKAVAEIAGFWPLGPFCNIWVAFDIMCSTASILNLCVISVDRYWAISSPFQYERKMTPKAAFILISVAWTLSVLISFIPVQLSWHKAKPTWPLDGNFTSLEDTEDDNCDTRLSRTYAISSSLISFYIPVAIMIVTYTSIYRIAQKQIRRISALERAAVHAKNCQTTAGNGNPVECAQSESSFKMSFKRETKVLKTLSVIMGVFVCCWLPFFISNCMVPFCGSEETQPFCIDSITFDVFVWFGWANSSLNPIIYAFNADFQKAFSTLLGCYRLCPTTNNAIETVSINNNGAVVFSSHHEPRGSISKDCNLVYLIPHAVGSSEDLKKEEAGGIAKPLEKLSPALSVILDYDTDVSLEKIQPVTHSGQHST
UniProt P19020, whole entry: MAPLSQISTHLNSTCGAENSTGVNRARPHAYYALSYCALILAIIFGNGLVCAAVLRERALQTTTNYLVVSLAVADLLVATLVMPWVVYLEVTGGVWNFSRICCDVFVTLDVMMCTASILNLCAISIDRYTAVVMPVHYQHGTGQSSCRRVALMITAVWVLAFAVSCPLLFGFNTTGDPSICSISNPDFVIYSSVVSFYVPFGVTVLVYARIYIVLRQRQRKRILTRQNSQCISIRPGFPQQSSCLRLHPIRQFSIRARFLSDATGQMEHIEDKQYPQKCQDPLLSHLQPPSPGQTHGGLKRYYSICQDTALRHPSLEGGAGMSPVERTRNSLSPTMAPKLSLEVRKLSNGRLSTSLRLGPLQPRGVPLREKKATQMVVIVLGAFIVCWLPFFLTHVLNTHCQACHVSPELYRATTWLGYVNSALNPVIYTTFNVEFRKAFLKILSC

What was measured:
5HT2a receptor = 5HT2a receptor (Rattus norvegicus, UniProt P14842); experiment: Interaction with 5HT2a receptor, 3H-ketanserine radioligand binding, prefrontal cortex; settings: for 5-HT2a pKi: Table 3
D1 receptor = biological target: T1, D1 receptor (Rattus norvegicus, UniProt P18901); experiment: Interaction with D1 receptor, [3H]-SCH 23390 radioligand binding, striate; settings: for D1 pKi: Table 3
T1 construct: was studied using various different cerebral areas (striate D1 and D2; olfactory tubule D3; prefrontal cortex 5HT2a); from tissue; host or cells: striatum ('striate')

D3 receptor = D3 receptor (Rattus norvegicus, UniProt P19020); experiment: Interaction with D3 receptor, 3H-7-OH-DPAT radioligand binding, olfactory tubule; settings: for D3 pKi: Table 3; for Ki: read-out: D3 Ki (nM) ± ds, Table 2
[1] = Table 2, read-out: 5-HT2a Ki (nM) ± ds
[2] = Table 2, read-out: D1 Ki (nM) ± ds

Structure (SMILES)	Ki (5HT2a receptor; Table 1, mean and standard deviation, read-out: 5-HT2a Ki ± ds)	Ki (5HT2a receptor; [1])	5-HT2a pKi (5HT2a receptor)	Ki (D1 receptor; Table 1, mean and standard deviation, read-out: D1 Ki ± ds)	Ki (D1 receptor; [2])	D1 pKi (D1 receptor)	D3 pKi (D3 receptor)	Ki (D3 receptor)
CN1CCN(C2=Cn3cccc3Sc3ccc(Cl)cc32)CC1 [ST1508, 7-chloro-9-(4-methyl-1-piperazinyl)pyrrolo[2,1-b][1,3]benzothiazepine]	0.34 ± 0.05 nM	0.34 ± 0.05 nM	9.47	1.9 ± 0.1 nM	1.9 ± 0.1 nM	8.72		
CN1CCN(C2=Cn3cccc3Sc3ccccc32)CC1 [ST1899, 9-(4-Methylpiperazin-1-yl) Pyrolo [2,1-b][1,3]benzothiazepine]		0.6 ± 0.1 nM	9.19					
CN1CCN(C2=Cn3cccc3Sc3ccc(F)cc32)CC1 [ST1928, 7-fluoro-9-(4-methyl-1-piperazinyl)pyrrolo[2,1-b][1,3]benzothiazepine]		0.35 ± 0.04 nM	9.46		7.7 ± 0.58 nM	8.11	8.57	2.7 ± 0.1 nM
Cc1ccc2n1C=C(N1CCN(C)CC1)c1ccccc1S2 [ST2092, 1-Methyl-9-(4-methylpiperazin-1-yl)pyrrolo[2,1-b][1,3]benzothiazepine]		1.1 ± 0.05 nM					7.74	18 ± 1 nM

Like-named read-outs stand apart in the source and are kept apart here.
